# According to patent US9826734B2, “Etherified lactate esters, method for the production thereof and use thereof for enhancing the effect of plant protecting agents” (Clariant International Ltd., priority 2011, dated 2017):
# Test system: leaf cuticles of apple
# Experiment: Membrane penetration of tebuconazole (SC430) through isolated apple leaf cuticles
# Type: in vitro ADME
# Details: 0.5 g/l tebuconazole (SC 430)
Substance,"Mean penetration of tevuconazole in % (2 g/l etherified lactate ester, 24 h, 20° C./60% RH)","Mean penetration of tevuconazole in % (2 g/l etherified lactate ester, 48 h, 30° C./60% RH)","Mean penetration of tevuconazole in % (0.5 g/l etherified lactate ester, 24 h, 20° C./60% RH)","Mean penetration of tevuconazole in % (0.5 g/l etherified lactate ester, 48 h, 30° C./60% RH)"
2-ethylhexyl lactate 2EO,42.1%,42.1%,,
Lauryl lactate 5EO/5PO,,,36.9%,36.9%
